Test results from patent publication US9873702B2, “Heterocyclic compounds as biogenic amine transport modulators” (Southern Research Institute, priority 2014, dated 2018).

Chains of the proteins cited; added tags and fusions are not shown.
UniProt P23977, whole entry: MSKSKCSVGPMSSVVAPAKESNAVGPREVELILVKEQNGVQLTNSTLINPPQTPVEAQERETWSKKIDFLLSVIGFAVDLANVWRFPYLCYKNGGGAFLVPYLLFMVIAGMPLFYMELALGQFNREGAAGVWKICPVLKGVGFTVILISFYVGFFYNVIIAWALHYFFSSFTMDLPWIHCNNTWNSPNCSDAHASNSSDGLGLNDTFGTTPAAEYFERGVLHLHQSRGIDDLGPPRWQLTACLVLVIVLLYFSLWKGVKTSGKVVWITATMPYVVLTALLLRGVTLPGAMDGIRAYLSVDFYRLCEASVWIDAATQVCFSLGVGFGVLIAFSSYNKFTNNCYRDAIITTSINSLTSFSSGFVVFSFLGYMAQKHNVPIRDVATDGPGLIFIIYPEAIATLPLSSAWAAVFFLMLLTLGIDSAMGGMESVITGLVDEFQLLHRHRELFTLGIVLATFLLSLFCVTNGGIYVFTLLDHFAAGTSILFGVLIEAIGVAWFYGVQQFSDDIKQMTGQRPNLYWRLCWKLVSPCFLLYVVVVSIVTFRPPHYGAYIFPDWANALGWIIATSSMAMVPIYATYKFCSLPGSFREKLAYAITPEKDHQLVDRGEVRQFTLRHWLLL

Experiments:
[1] = biological target: T1, dopamine transporter (DAT) (Rattus norvegicus, UniProt P23977); assay: Dopamine transporter-mediated [^3H]MPP^+ release, shift of D-amphetamine-induced release, rat caudate synaptosomes; type: biochemical; parameters: Freshly removed caudate was homogenized in 10% ice-cold sucrose; from tissue; host or cells: rat caudate synaptosomes
[2] = biological target: T1, dopamine transporter (DAT); assay: d-Amphetamine-induced DAT-mediated [^3H]DA release; type: biochemical; parameters: Freshly removed caudate was homogenized in 10% ice-cold sucrose; from tissue; host or cells: rat caudate synaptosomes; details: Apparent Kc = [Blocker]/((EC50-2/EC50-1) − 1), negative when shifted EC50 is less than control

Structure (SMILES) | Apparent Kc ([1]; [3H]MPP+ release, Apparent Kc = [Blocker]/((EC50-2/EC50-1) − 1), negative when shifted EC50 is less than control) [nM] | effect on the d-amphetamine Emax value, in words ([1]; d-amphetamine-induced DAT-mediated [^3H]MPP^+ release, blocking concentration ˜25 times IC50 for DAT uptake inhibition) | Apparent Kc [2] [nM] | D-Amphetamine Emax (% ± SD) ([1]; D-amphetamine-induced DAT-mediated [^3H]MPP^+ release, no test compound) [%]
c1ccc(CCCN2CCN(CCOC(c3ccccc3)c3ccccc3)CC2)cc1 [GBR12935, reference compound] | 0.22 | without changing the Emax value | 0.74 | 
C[C@H](N)Cc1ccccc1 [D-Amphetamine, D-amphetamine, reference compound] |  |  |  | 104 ± 4
